Cyclic peptide permeability, from CycPeptMPDB

Source: CycPeptMPDB (Li et al. 2023), which took these values from Townsend et al. 2020, doi:10.26434/chemrxiv.13335941.v1.

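Conditions beyond the assay type are not listed; see the original paper. The list need not hold all peptides of the study. Entries at the database's floor value (log10 P of -10) are not listed.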

PAMPA is the parallel artificial membrane permeability assay, which has no cells and reads passive diffusion.
Values are log10 P with P in cm/s, so -5 is more permeable than -7.

| compound | PAMPA (log10 cm/s) |
|---|---|
| CC(C)C[C@@H]1NC(=O)[C@H]2CCCN2C(=O)[C@@H](CC(C)C)NC(=O)[C@H](CC(C)C)N(C)C(=O)[C@H](C)NC(=O)[C@H](Cc2ccccc2)NC1=O | -6.21 |
| CC(C)C[C@@H]1C(=O)N2CCC[C@H]2C(=O)N(Cc2ccccc2)CC(=O)N[C@@H](Cc2ccccc2)C(=O)N[C@@H](C)C(=O)N[C@H](CC(C)C)C(=O)N1C | -5.39 |
| CC(C)C[C@@H]1C(=O)N[C@@H](Cc2ccccc2)C(=O)N2CCC[C@H]2C(=O)N(C)[C@H](C)C(=O)N(C)[C@@H](CC(C)C)C(=O)N(C)[C@@H](CC(C)C)C(=O)N2CCC[C@H]2C(=O)N1C | -5.41 |
| CC(C)C[C@@H]1NC(=O)[C@@H](C)NC(=O)[C@H]2CCCN2C(=O)[C@H](Cc2ccccc2)NC(=O)[C@@H](CC(C)C)N(C)C(=O)[C@H]2CCCN2C(=O)[C@H](CC(C)C)N(C)C1=O | -5.75 |
| CCCN1CC(=O)N(C)[C@H](CC(C)C)C(=O)N(C)[C@H](CC(C)C)C(=O)N2CCC[C@H]2C(=O)N(Cc2ccccc2)CC(=O)N[C@@H](Cc2ccccc2)C(=O)N2CCC[C@@H]2C1=O | -5.33 |
| CC(C)C[C@@H]1NC(=O)[C@@H](CC(C)C)N(C)C(=O)C[C@H](Cc2ccccc2)NC(=O)[C@@H]2CCCN2C(=O)[C@H](Cc2ccccc2)NC(=O)[C@@H](CC(C)C)NC(=O)[C@@H]2CCCN2C1=O | -5.62 |
| CC(C)C[C@H]1NC(=O)[C@H](C)N(C)C(=O)[C@@H]2CCCN2C(=O)[C@H](Cc2ccccc2)NC(=O)CN(Cc2ccccc2)C(=O)[C@@H]2CCCN2C(=O)CN(Cc2ccccc2)C1=O | -6.28 |
| CC(C)C[C@@H]1NC(=O)[C@@H](C)N(C)C(=O)[C@H](Cc2ccccc2)NC(=O)[C@@H](CC(C)C)NC(=O)[C@@H]2CCCN2C(=O)[C@@H](CC(C)C)N(C)C1=O | -5.14 |
| CC(C)C[C@@H]1NC(=O)[C@@H](C)N(C)C(=O)[C@H]2CCCN2C(=O)[C@H](Cc2ccccc2)NC(=O)CN(Cc2ccccc2)C(=O)[C@@H]2CCCN2C(=O)[C@H](CC(C)C)NC1=O | -5.41 |
| CC(C)C[C@@H]1C(=O)N[C@@H](Cc2ccccc2)C(=O)N[C@H](C)C(=O)N[C@H](CC(C)C)C(=O)N[C@@H](Cc2ccccc2)CC(=O)N2CCC[C@H]2C(=O)N1C | -6.75 |
| CC(C)C[C@@H]1NC(=O)[C@H]2CCCN2C(=O)CN(Cc2ccccc2)C(=O)[C@@H](CC(C)C)N(C)C(=O)[C@@H](C)N(C)C(=O)[C@H]2CCCN2C(=O)[C@H](Cc2ccccc2)NC1=O | -6.15 |
| CC(C)C[C@@H]1NC(=O)[C@H]2CCCN2C(=O)[C@H](CC(C)C)N(C)C(=O)[C@@H](CC(C)C)NC(=O)[C@@H](C)N(C)C(=O)[C@H](Cc2ccccc2)NC1=O | -5.53 |
| CC(C)C[C@@H]1C(=O)N2CCC[C@@H]2C(=O)N(C)[C@H](CC(C)C)C(=O)N[C@@H](Cc2ccccc2)C(=O)N2CCC[C@@H]2C(=O)N[C@H](C)C(=O)N(C)[C@H](CC(C)C)C(=O)N1C | -6.12 |
| CC(C)C[C@H]1NC(=O)[C@@H]2CCCN2C(=O)CN(Cc2ccccc2)C(=O)[C@H](CC(C)C)N(C)C(=O)[C@H](C)NC(=O)[C@H]2CCCN2C(=O)[C@H](Cc2ccccc2)NC1=O | -6.04 |
| CC(C)C[C@@H]1C(=O)N(Cc2ccccc2)CC(=O)N2CCC[C@H]2C(=O)N(C)[C@@H](CC(C)C)C(=O)N[C@@H](Cc2ccccc2)C(=O)N[C@H](C)C(=O)N1C | -5.60 |
| CC(C)C[C@@H]1NC(=O)C[C@H](Cc2ccccc2)NC(=O)[C@@H]2CCCN2C(=O)[C@H](Cc2ccccc2)NC(=O)[C@@H](CC(C)C)N(C)C(=O)[C@H]2CCCN2C(=O)CN(Cc2ccccc2)C1=O | -5.46 |
| CC(C)C[C@@H]1NC(=O)[C@@H]2CCCN2C(=O)[C@@H](CC(C)C)N(C)C(=O)[C@@H](CC(C)C)N(C)C(=O)[C@H](C)N(C)C(=O)[C@H](Cc2ccccc2)NC1=O | -4.62 |
| CC(C)C[C@H]1NC(=O)[C@H](C)N(C)C(=O)[C@H](Cc2ccccc2)NC(=O)[C@H](CC(C)C)N(C)C(=O)[C@H]2CCCN2C(=O)[C@@H](CC(C)C)NC1=O | -6.18 |
| CC(C)C[C@@H]1NC(=O)[C@@H]2CCCN2C(=O)CN(Cc2ccccc2)C(=O)[C@H](CC(C)C)NC(=O)[C@H](C)N(C)C(=O)[C@H]2CCCN2C(=O)[C@H](Cc2ccccc2)NC1=O | -6.09 |

Excerpt, the final 2 entries:

compound	PAMPA (log10 cm/s)
CC(C)C[C@H]1NC(=O)[C@H](C)N(C)C(=O)[C@H](Cc2ccccc2)NC(=O)[C@H](CC(C)C)N(C)C(=O)[C@H]2CCCN2C(=O)[C@@H](CC(C)C)NC1=O	-6.18
CC(C)C[C@@H]1NC(=O)[C@@H]2CCCN2C(=O)CN(Cc2ccccc2)C(=O)[C@H](CC(C)C)NC(=O)[C@H](C)N(C)C(=O)[C@H]2CCCN2C(=O)[C@H](Cc2ccccc2)NC1=O	-6.09